# Binding of CDR-mutated scFvs to a peptide of the spike HR2 region

Source: Engelhart et al. 2022 (doi:10.1038/s41597-022-01779-4), MIT Lincoln Laboratory and A-Alpha Bio; data file from the FLAb repository.

Target: peptide PDVDLGDISGINAS, taken from heptad repeat 2 (HR2) of SARS-CoV-2 spike.

Parent: Ab-91, a human scFv built as VL, the linker GGGGSGGGGSGGGGS, VH. Only the CDRs of the heavy chain vary.
VL: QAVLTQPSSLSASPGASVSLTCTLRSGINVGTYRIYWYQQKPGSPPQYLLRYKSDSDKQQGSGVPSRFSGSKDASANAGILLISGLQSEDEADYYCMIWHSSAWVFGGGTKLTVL
VH: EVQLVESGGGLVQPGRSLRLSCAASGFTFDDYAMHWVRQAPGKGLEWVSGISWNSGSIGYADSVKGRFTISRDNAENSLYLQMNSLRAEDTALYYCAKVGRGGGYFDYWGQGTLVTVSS

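Library AAYL51 holds single substitutions and randomly drawn double and triple substitutions in the CDRs. The scFvs were displayed on barcoded MATa yeast, the peptide on MATalpha yeast. Mating (16 h, 30 °C) was followed by selection of diploids and sequencing of their barcodes. Read counts were normalised to the haploid input and turned into Kd by a linear fit to BCL2-family pairs of known affinity, for each replicate. There are three technical replicates.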

Positions count from residue 1 of the parent VH; A33D puts D in place of A. This list gathers variants with a substitution at R101 (VH, numbered from residue 1). Each Kd is an estimate from the mating assay, the geometric mean of the replicates in which the pair was seen; lower is stronger. Where no diploid with the target was found in any replicate, the entry reads "no signal": below detection, most likely a poor binder, though not proof of it. Three control strains display no target. For library AAYL51, 21% of the pairings with them gave a signal, with a median of 34 µM and one signal in twenty below 1.8 µM, so weak values seen in few replicates may be background. In this assay the parent's reference entry averaged 72 nM; its copy inside this library read 7.5 nM.

With A33D/V99G/R101M the result was 120 nM (1 of 3 replicates).
With R101D/Y105T the result was no signal (0 of 3 replicates).
With R101K/G104H the result was 7.9 µM (3 of 3 replicates).
With D30Y/Y32T/R101Q the result was 120 nM (3 of 3 replicates).
With M34A/H35T/R101S the result was no signal (0 of 3 replicates).
With G26F/G50T/R101V the result was no signal (0 of 3 replicates).
With I51V/S63A/R101H the result was 340 nM (3 of 3 replicates).
With Y32W/M34C/R101V the result was no signal (0 of 3 replicates).
With K65T/R101F the result was 14 nM (3 of 3 replicates).
With K65M/V99R/R101Y the result was no signal (0 of 3 replicates).
With G50C/N54T/R101Q the result was 84 µM (2 of 3 replicates).
With A61M/R101L/D107W the result was 110 µM (2 of 3 replicates).
With D30W/G56M/R101S the result was 2.1 µM (3 of 3 replicates).
With N54D/I58P/R101M the result was no signal (0 of 3 replicates).
With M34D/G50P/R101A the result was 290 µM (2 of 3 replicates).
With G50H/G56C/R101A the result was 65 µM (3 of 3 replicates).
With V99A/R101V/Y105F the result was no signal (0 of 3 replicates).
With A33F/I51K/R101Q the result was no signal (0 of 3 replicates).
With G26A/I58V/R101L the result was 1.3 µM (3 of 3 replicates).
With I58S/R101C/G103T the result was 18 nM (3 of 3 replicates).
With R101D/Y105V/Y108R the result was 270 nM (3 of 3 replicates).
With G56V/K65L/R101Q the result was 7.3 µM (2 of 3 replicates).
With G59K/R101D/G103D the result was no signal (0 of 3 replicates).
With V64G/R101P/G104L the result was 33 µM (2 of 3 replicates).
With T28N/V64R/R101I the result was no signal (0 of 3 replicates).
With I58K/R101Y/F106W the result was 62 µM (2 of 3 replicates).
With I51K/S52N/R101W the result was 71 µM (1 of 3 replicates).
With G56I/D62R/R101V the result was 41 µM (1 of 3 replicates).
With G26T/A61P/R101M the result was 170 µM (1 of 3 replicates).
With H35Y/R101E/F106M the result was 46 µM (2 of 3 replicates).
With H35K/S57T/R101S the result was no signal (0 of 3 replicates).
With S52H/R101E/G104S the result was no signal (0 of 3 replicates).
With G59C/R101P/G103R the result was no signal (0 of 3 replicates).
With F29C/V64L/R101W the result was no signal (0 of 3 replicates).
With S52Q/R101W/D107N the result was no signal (0 of 3 replicates).
With G26C/S57Y/R101P the result was no signal (0 of 3 replicates).
With S63M/V64D/R101W the result was no signal (0 of 3 replicates).
With Y32P/R101M/G104R the result was 160 µM (1 of 3 replicates).
With G26K/R101P the result was 16 µM (2 of 3 replicates).
With V64P/R101K the result was 81 µM (3 of 3 replicates).
With I51Y/S57Q/R101I the result was no signal (0 of 3 replicates).
With T28V/R101S/G102M the result was 250 µM (2 of 3 replicates).
With F27W/S57W/R101S the result was 70 µM (1 of 3 replicates).
With D31M/Y60A/R101L the result was 310 nM (2 of 3 replicates).
With R101T/F106M the result was 430 µM (2 of 3 replicates).
With R101S/G103I/G104L the result was no signal (0 of 3 replicates).
With R101V/G104Q/Y108S the result was 12 µM (1 of 3 replicates).
With I51W/D62C/R101M the result was no signal (0 of 3 replicates).
With G59S/R101C the result was no signal (0 of 3 replicates).
With Y32N/S63H/R101Q the result was 280 nM (2 of 3 replicates).
With G59P/R101H the result was no signal (0 of 3 replicates).

For reference, 7 entries of the list once more:

{"changes": "V64G/R101P/G104L", "apparent Kd": "33 µM", "replicates with signal": "2 of 3"}
{"changes": "G56I/D62R/R101V", "apparent Kd": "41 µM", "replicates with signal": "1 of 3"}
{"changes": "V99A/R101V/Y105F", "apparent Kd": "no signal", "replicates with signal": "0 of 3"}
{"changes": "I51W/D62C/R101M", "apparent Kd": "no signal", "replicates with signal": "0 of 3"}
{"changes": "K65T/R101F", "apparent Kd": "14 nM", "replicates with signal": "3 of 3"}
{"changes": "G26T/A61P/R101M", "apparent Kd": "170 µM", "replicates with signal": "1 of 3"}
{"changes": "D30Y/Y32T/R101Q", "apparent Kd": "120 nM", "replicates with signal": "3 of 3"}